Measurements from paper PMC6746776, “TA*p63 and GTAp63 achieve tighter transcriptional regulation in quality control by converting an inhibitory element into an additional transactivation domain” (Cell Death & Disease, 2019).

Columns and labels:
[1] = tested on: TA*p63α S582/S583A; assay: BN-PAGE oligomeric state of TA*p63α S582/S583A upon Dox treatment; assay type: cell-based; settings: transfected U2OS and H1299 cells, 10 µM Dox, 6 h
Excerpt: (§1) Vinculin was used as loading control.

[2] = tested on: GTAp63α S582/S583A; assay: BN-PAGE oligomeric state of GTAp63α S582/S583A upon Dox treatment; assay type: cell-based; settings: transfected U2OS and H1299 cells, 10 µM Dox, 6 h
Excerpt: as §1

COc1cccc2c1C(=O)c1c(O)c3c(c(O)c1C2=O)C[C@@](O)(C(=O)CO)C[C@@H]3O[C@H]1C[C@H](N)[C@H](O)[C@H](C)O1 [Dox, doxorubicin]
activation to tetrameric state, Chk2 priming site mutant S582/S583A of TA*p63α [1]: S582/583A mutations prevent this activation | activation to tetrameric state, Chk2 priming site mutant S582/S583A of GTAp63α [2]: S582/583A mutations prevent this activation
